Measured values from patent US20260373119A1, “NOVEL COMPOUND, AND COMPOSITION FOR PREVENTING OR TREATING HER2-POSITIVE CANCER, COMPRISING SAME” (EWHA UNIVERSITY - INDUSTRY COLLABORATION FOUNDATION, priority 2022, published 2026).

Tests used:
TZMB-sensitive cells = assay: treatment of TZMB-sensitive cells; type: cell-based; conditions: parent BT474 and NCI-N87
Method: (§1) The ability of the candidate compound to overcome trastuzumab resistance was evaluated. Specifically, compounds 1 through 22 were tested on JIMT-1 cells (ER-/PR-/HER2+ subtype with innate TZMB resistance), TZMB-refractory BT474 cells (BT-TR; ER+/PR+/HER2+ subtype with acquired resistance), and TZMB-refractory NCI-N87 cells (NCI-N87 TR; HER2+ subtype with acquired resistance).

TZMB-resistant cells [1] = assay: treatment of TZMB-resistant cells; type: cell-based; conditions: BT474 TR, NCI-N87 TR, JIMT-1
Method: as §1

[2] = tested on: HER2 and downstream signaling (phosphorylated AKT and MAPK); assay: HER2 expression and downstream signaling, TZMB-sensitive and -resistant cells; type: cell-based
Method: For western blot analysis, cells were seeded in a 6-well plate and lysed in 1×RIPA lysis buffer (Cell Signaling, USA) containing 1% 0.1 M [COMPOUND LEFT OUT] and 1% 100× protease inhibitor cocktail solution (Genedepot, USA). Total protein levels were standardized using the Pierce™ BCA Protein Assay Kit (Thermo Fisher Scientific, USA) and a microplate reader (Tecan Group Ltd., Switzerland). A total of 20 μg of protein was loaded onto a 10-15% SDS-PAGE acrylamide gel and transferred to a 0.2 μm PVDF membrane (Pall Life Science, USA). The membrane was blocked with 5% skim milk or 5% BSA, and the membrane was cultured with primary antibodies (purchased from Thermo Fisher, Cell Signaling, Santa Cruz, Novus, or MBL) at room temperature for 3 hours or overnight at 4 °C. The blot was washed three times with Tris-buffered saline containing 0.1% Tween20 (1×TBST) and incubated with an HRP-conjugated secondary antibody (GeneTex, USA). Protein bands were detected using ECL solution reagents (GE Healthcare, USA) and the LAS-3000 imaging system (Fuji Photo Film Co., Ltd., Japan), and captured images were analyzed using Multi-Gauge software (Fuji Photo Film Co. Ltd.). The preparation of cell lysates for subsequent analyses was performed using the same method as described for western blot analysis.
The ability of the candidate compound to overcome trastuzumab resistance was evaluated. […]

TZMB-resistant cells [3] = assay: clonal analysis; type: cell-based; conditions: 14 days; TZMB 10 or 20 μg/mL, YK1 0.5 or 1 μM
Method: To validate the above results, clonal analysis was performed. Specifically, cells were seeded at a density of 2,000 cells/well in a 6-well culture plate, treated with either TZMB (10 or 20 μg/mL) or YK1 (0.5 or 1 μM), or left untreated, and incubated for 14 days. The incubated cells were fixed with 100% methanol for 1 hour and then stained with 200 μL of crystal violet solution per well. After washing the cells with tap water, images were captured using a ChemiDoc bio-image analyzer (Bio-Rad), and quantification was performed with ImageJ software (NIH, Bethesda, MD, USA). All processes following the fixation were conducted at room temperature.

[4] = JIMT-1 xenograft, body weight; type: in vivo, mice; conditions: 4 mg/kg
Method: Xenograft mice were generated to evaluate the anticancer effects of the candidate compound. NCI-N87 and JIMT-1 cells (5×10^6 cells), dissolved in 100 μL of 1× phosphate-buffered saline (PBS), were subcutaneously injected into the right flanks of 5-week-old female athymic nude mice (Envigo, USA) or 4-week-old female NOD-SCID mice (Koatech, South Korea). When the tumors reached a volume of 90-100 mm^3, the mice were randomized into designated groups. For the NCI-N87 xenograft, intravenous administration was performed six times at 3-day intervals. For the JIMT-1 xenograft, intraperitoneal administration was performed eight times at 3-day intervals. The candidate compound (hereinafter, YK1) and trastuzumab (TZMB) were each prepared at a concentration of 4 mg/kg, mixed with a DMAC/Tween80/saline (5:10:85) ratio mixture and saline, respectively, and then administered. Tumor size changes were monitored until the mean tumor size in the control group reached 2,000-2,500 mm^3. On day 28 for the NCI-N87 xenograft and day 46 for the JIMT-1 xenograft, the mice were sacrificed, and tumors were excised to determine relative tumor sizes. Tumor length (L) and width (W) were measured with calipers, and tumor volume was calculated using the formula: […]
To assess resistance-avoidance effects in vivo, JIMT-1 xenograft mice were treated with 4 mg/kg of the candidate compound or TZMB.

## TZMB: trastuzumab (TZMB), an antibody drug targeting the extracellular domain of the HER2 protein [reference compound]
TZMB-sensitive cells
  anticancer effect in TZMB-sensitive cells: effective only in TZMB-sensitive cells
TZMB-resistant cells [1]
  anticancer effect in TZMB-resistant cells: effective only in TZMB-sensitive cells
[2]
  HER2 expression and downstream signaling: did not induce such changes
TZMB-resistant cells [3]
  effect against TZMB resistance in clonal analysis: did not exhibit such effects
[4]
  body weight: remained generally consistent
